In this test the target is Syk (Homo sapiens (Human), UniProt P43405). Nature of the test: Syk enzyme inhibition (Z-LYTE FRET). It counts as biochemical. On the procedure: The enzyme inhibitory activities of compounds disclosed herein were determined by FRET using synthetic peptides labelled with both donor and acceptor fluorophores (Z-LYTE, Invitrogen Ltd., Paisley, UK).
Development reagent (protease, 5 μL) was added for 1 hr prior to detection in a fluorescence microplate reader (Varioskan® Flash, ThermoFisher Scientific).
In all cases, the site-specific protease cleaves non-phosphorylated peptide only and eliminates the FRET signal. Phosphorylation levels of each reaction were calculated using the ratio of coumarin emission (donor) over fluorescein emission (acceptor), for which low ratios indicate high phosphorylation and high ratios indicate low phosphorylation levels.

The compound `COCC(=O)Nc1cc(Oc2ccc(NC(=O)Nc3cc(C(C)(C)C)nn3-c3ccc(C)cc3)c3ccccc23)ccn1` [Reference Compound, N-(4-(4-(3-(3-tert-butyl-1-p-tolyl-1H-pyrazol-5-yl)ureido)naphthalen-1-yloxy)pyridin-2-yl)-2-methoxyacetamide] gave an IC50 of 42 nM.

Source of the values: US9108950B2, “1-pyrazolyl-3-(4-((2-anilinopyrimidin-4-yl)oxy)napththalen-1-yl) ureas as p38 MAP kinase inhibitors” (Respivert Ltd., priority 2011, dated 2015).
